From patent US7001907B2, “Peptide-containing α-ketoamide cysteine and serine protease inhibitors” (Cephaon, Inc., priority 1997, dated 2006)

Sequences of proteins named here, by UniProt entry; tags and fusion partners are left off.
UniProt P07384, whole entry: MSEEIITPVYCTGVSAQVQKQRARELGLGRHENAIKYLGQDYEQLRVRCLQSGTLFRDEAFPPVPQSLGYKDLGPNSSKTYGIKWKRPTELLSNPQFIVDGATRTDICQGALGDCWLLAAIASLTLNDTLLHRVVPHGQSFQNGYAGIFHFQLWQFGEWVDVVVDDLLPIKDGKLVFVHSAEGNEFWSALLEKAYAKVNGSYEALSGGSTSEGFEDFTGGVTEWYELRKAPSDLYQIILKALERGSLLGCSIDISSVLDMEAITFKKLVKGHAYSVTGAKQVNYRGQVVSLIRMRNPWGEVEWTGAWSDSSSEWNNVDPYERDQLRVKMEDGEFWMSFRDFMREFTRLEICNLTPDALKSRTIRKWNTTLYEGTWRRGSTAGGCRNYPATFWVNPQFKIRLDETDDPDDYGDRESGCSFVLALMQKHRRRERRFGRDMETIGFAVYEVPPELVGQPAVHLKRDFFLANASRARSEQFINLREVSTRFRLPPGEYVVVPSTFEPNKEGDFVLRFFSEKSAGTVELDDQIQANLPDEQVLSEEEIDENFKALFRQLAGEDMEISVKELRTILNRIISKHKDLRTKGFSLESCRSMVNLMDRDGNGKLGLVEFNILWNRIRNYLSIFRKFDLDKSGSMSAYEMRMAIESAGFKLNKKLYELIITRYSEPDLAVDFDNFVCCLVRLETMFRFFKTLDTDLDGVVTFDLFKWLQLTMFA
UniProt P04632, whole entry partner: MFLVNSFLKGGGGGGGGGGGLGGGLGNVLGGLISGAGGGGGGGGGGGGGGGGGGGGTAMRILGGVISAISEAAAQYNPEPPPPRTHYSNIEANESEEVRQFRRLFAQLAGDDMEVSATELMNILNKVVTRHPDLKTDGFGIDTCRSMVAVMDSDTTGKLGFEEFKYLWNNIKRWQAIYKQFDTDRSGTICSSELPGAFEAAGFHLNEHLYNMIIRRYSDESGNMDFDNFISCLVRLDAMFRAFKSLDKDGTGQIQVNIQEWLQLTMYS

Molecular target: Recombinant human calpain I (Homo sapiens, UniProt P07384)
Experiment: Inhibition of cysteine protease activity: calpain I, Succ-Leu-Tyr-MNA substrate hydrolysis
Conditions: read-out: Calpain IC50 nM; Table 2, linear α-ketoamides

IC50 | SMILES
14 nM | COCC(NC(=O)[C@@H](COCc1ccccc1)NS(C)(=O)=O)C(=O)C(=O)NCCNS(=O)(=O)c1ccc(-c2ccccn2)s1 (stereo partly shown)

Same assay, conditions: read-out: Calpain IC50 nM; Table 4, α-ketoamides

SMILES | IC50
CS(=O)(=O)N[C@H](COCc1ccccc1)C(=O)NC(Cc1ccccc1)C(=O)C(=O)NCCNS(=O)(=O)c1ccc(CN2CCN(c3ccccn3)CC2)cc1 (stereo partly shown) | 21 nM
CC(=O)N1CCN(Cc2ccc(S(=O)(=O)NCCNC(=O)C(=O)[C@H](Cc3ccccc3)NC(=O)[C@@H](COCc3ccccc3)NS(C)(=O)=O)cc2)CC1 | 14 nM
CC(=O)Nc1ccc(OCc2ccc(S(=O)(=O)NCCNC(=O)C(=O)[C@H](Cc3ccccc3)NC(=O)[C@@H](COCc3ccccc3)NS(C)(=O)=O)cc2)cc1 | 14 nM
CS(=O)(=O)N[C@H](COCc1ccccc1)C(=O)N[C@@H](Cc1ccccc1)C(=O)C(=O)NCCN1C(=O)c2ccccc2S1(=O)=O | 48 nM
CS(=O)(=O)N[C@H](COCc1ccccc1)C(=O)N[C@@H](Cc1ccccc1)C(=O)C(=O)NCCNS(=O)(=O)c1ccc(CN2CCN(S(C)(=O)=O)CC2)cc1 | 37 nM
CC(=O)c1ccc(N2CCN(Cc3ccc(S(=O)(=O)NCCNC(=O)C(=O)C(Cc4ccccc4)NC(=O)[C@@H](COCc4ccccc4)NS(C)(=O)=O)cc3)CC2)cc1 (stereo partly shown) | 11 nM
CS(=O)(=O)N[C@H](COCc1ccccc1)C(=O)N[C@@H](Cc1ccccc1)C(=O)C(=O)NC1CCN(S(=O)(=O)c2ccccc2)CC1 | 32 nM
CON(C)Cc1ccc(S(=O)(=O)NCCNC(=O)C(=O)C(Cc2ccccc2)NC(=O)[C@@H](COCc2ccccc2)NS(C)(=O)=O)cc1 (stereo partly shown) | 21 nM
CONS(=O)(=O)CCCNC(=O)C(=O)[C@H](Cc1ccccc1)NC(=O)[C@@H](COCc1ccccc1)NS(C)(=O)=O | 87 nM
CS(=O)(=O)N[C@H](COCc1ccccc1)C(=O)N[C@@H](Cc1ccccc1)C(=O)C(=O)NCCNS(=O)(=O)c1ccc(CN2CCN(c3ncccn3)CC2)cc1 | 24 nM
CS(=O)(=O)N[C@H](COCc1ccccc1)C(=O)N[C@@H](Cc1ccccc1)C(=O)C(=O)NCCNS(=O)(=O)c1ccc(CN2CCN(Cc3ccccc3)CC2)cc1 | 23 nM

Other lines, results leading:

IC50 | SMILES
23 nM | C[C@H](OCc1ccccc1)[C@@H](NS(C)(=O)=O)C(=O)NC(Cc1ccccc1)C(=O)C(=O)NCCNS(=O)(=O)c1ccc(-c2cccc(CN3CCOCC3)c2)s1 (stereo partly shown)
21 nM | CN(CCNC(=O)C(=O)[C@H](Cc1ccccc1)NC(=O)[C@@H](COCc1ccccc1)NS(C)(=O)=O)S(=O)(=O)c1ccc(-c2ccon2)s1
35 nM | CS(=O)(=O)N[C@H](COCc1ccccc1)C(=O)NC(Cc1ccccc1)C(=O)C(=O)NCCNS(=O)(=O)c1ccc(-c2cccc(CO)c2)s1 (stereo partly shown)

Same assay, conditions: read-out: Calpain IC50 nM; Table 5, achiral P2 mimetic α-ketoamides

IC50 | SMILES
68 nM | O=C(NCCNS(=O)(=O)c1ccc(-c2ccccn2)s1)C(=O)[C@H](Cc1ccccc1)NC(=O)c1cc(Cl)ccc1Cl
80 nM | O=C(NCCNS(=O)(=O)c1ccc(-c2ccccn2)s1)C(=O)[C@H](Cc1ccccc1)NC(=O)c1ccc(Cl)nc1Cl
21 nM | O=Cc1cccc(-c2ccc(S(=O)(=O)NCCNC(=O)C(=O)[C@H](Cc3ccccc3)NC(=O)c3c(Cl)cccc3Cl)s2)c1
83 nM | O=C(NCCNS(=O)(=O)c1ccc(CN2CCN(c3ccccn3)CC2)cc1)C(=O)[C@H](Cc1ccccc1)NC(=O)c1c(Cl)cccc1Cl
